pIC50: −log10 of the molar value.
Assays:
panel of 456 kinases = test: DiscoveRx KinomeScan kinome selectivity; type: binding; settings: concentration of 1mM
Vps34 = biological target: T1, Vps34 (Homo sapiens, UniProt Q8NEB9); test: ADP-glo biochemical assay; settings: relative to PI3Kδ IC50
T1 construct: purchased Invitrogen

Sequences of proteins named here, by UniProt entry; tags and fusion partners are left off. A change or cut given only in a name is not applied to a line headed by its entry.
UniProt Q8NEB9, whole entry: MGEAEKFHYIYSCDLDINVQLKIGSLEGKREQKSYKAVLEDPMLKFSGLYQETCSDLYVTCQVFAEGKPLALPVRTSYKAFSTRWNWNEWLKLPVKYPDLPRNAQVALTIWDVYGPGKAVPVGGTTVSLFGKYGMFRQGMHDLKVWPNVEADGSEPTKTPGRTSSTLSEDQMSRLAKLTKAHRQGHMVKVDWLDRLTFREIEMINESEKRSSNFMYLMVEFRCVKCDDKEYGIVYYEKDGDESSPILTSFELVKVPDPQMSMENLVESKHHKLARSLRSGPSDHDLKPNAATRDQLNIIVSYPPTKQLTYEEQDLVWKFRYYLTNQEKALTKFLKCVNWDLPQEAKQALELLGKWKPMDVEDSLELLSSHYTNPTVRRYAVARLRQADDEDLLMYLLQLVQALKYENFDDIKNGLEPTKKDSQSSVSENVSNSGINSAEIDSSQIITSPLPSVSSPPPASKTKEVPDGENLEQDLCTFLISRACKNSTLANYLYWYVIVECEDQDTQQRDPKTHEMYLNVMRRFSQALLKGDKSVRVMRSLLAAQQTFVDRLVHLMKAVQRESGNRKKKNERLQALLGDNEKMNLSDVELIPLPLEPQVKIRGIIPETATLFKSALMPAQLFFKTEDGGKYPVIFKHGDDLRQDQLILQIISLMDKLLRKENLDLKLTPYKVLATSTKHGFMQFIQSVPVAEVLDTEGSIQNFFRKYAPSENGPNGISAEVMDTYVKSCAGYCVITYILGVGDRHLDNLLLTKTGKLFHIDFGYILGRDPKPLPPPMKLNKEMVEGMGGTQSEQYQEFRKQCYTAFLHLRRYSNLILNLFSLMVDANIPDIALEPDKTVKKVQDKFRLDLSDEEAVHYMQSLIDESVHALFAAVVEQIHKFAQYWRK
UniProt Q9UBF8: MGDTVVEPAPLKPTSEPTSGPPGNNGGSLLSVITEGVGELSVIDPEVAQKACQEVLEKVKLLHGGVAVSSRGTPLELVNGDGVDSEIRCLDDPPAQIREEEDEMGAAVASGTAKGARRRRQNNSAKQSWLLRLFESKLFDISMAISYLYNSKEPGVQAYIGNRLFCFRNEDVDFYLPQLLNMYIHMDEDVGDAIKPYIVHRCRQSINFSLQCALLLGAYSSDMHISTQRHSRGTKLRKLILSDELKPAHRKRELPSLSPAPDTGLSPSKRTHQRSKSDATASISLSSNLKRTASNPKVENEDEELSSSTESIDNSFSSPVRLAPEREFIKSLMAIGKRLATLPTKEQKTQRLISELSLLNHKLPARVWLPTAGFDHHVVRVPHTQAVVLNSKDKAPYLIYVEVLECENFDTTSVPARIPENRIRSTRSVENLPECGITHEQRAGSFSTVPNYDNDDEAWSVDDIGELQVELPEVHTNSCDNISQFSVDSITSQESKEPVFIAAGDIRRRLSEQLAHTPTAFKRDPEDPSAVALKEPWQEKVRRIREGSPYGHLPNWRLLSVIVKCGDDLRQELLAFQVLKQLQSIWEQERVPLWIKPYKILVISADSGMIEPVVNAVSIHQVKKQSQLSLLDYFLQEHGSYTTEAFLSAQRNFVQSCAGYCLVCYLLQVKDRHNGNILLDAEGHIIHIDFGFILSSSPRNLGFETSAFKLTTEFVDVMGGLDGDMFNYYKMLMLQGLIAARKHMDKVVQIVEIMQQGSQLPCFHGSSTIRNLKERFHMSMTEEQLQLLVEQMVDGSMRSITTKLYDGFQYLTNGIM
UniProt P42338: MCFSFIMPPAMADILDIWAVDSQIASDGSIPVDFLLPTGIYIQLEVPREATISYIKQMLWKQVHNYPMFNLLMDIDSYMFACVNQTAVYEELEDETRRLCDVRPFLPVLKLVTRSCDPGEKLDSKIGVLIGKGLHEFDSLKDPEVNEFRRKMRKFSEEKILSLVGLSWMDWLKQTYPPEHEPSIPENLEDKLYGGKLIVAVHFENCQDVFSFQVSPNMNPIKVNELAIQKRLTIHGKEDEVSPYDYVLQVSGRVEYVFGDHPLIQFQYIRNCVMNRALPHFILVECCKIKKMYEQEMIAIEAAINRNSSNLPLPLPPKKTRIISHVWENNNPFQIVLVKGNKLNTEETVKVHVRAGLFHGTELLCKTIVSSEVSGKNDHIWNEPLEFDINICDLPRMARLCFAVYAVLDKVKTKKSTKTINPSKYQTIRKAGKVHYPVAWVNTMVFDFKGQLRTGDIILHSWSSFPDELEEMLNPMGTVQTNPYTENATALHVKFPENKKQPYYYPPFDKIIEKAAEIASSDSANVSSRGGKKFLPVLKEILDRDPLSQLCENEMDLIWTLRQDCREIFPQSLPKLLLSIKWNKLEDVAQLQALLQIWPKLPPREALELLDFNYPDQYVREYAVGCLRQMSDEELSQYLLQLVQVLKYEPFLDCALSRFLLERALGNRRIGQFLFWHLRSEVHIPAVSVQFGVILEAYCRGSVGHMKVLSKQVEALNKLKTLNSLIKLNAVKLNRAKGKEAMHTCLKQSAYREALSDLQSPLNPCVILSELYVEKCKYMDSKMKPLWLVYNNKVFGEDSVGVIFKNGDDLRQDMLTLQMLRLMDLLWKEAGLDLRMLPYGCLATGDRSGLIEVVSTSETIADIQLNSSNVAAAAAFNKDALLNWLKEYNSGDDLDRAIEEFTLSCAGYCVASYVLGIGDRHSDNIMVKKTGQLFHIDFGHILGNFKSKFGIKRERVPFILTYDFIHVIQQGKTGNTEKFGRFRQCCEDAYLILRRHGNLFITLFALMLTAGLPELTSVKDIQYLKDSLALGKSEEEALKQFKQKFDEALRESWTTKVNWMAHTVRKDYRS
UniProt P48736: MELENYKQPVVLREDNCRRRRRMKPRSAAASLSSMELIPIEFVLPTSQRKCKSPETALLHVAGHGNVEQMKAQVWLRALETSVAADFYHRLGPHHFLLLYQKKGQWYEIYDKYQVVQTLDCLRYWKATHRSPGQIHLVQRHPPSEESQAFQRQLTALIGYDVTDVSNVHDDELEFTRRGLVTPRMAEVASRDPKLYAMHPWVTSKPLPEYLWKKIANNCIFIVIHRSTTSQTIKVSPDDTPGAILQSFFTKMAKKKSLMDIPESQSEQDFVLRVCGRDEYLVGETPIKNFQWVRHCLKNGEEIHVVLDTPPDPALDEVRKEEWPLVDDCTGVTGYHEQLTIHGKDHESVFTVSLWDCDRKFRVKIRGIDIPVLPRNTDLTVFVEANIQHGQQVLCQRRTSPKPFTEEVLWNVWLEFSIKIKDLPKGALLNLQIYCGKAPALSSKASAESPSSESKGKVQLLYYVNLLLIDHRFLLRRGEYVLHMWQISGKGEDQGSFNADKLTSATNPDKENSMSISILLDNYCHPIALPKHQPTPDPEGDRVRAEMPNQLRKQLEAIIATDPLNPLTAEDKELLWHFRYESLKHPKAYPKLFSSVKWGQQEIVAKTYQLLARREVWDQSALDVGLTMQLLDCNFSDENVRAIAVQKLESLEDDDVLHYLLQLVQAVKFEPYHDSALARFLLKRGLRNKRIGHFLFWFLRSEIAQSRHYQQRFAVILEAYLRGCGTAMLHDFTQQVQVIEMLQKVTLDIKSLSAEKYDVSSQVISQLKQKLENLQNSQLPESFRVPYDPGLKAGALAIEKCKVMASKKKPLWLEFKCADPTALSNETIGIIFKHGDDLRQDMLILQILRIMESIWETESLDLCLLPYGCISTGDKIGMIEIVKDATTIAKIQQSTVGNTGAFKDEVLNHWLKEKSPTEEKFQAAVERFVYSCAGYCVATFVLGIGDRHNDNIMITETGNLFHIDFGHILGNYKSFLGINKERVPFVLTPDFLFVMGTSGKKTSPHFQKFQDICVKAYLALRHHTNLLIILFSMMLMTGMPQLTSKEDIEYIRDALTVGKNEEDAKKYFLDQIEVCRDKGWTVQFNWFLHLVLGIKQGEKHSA

PI4KB = biological target: T2, PI4KB (Homo sapiens, UniProt Q9UBF8); test: ADP-glo biochemical assay; settings: relative to PI3Kδ IC50
T2 construct: purchased Invitrogen

PI3Kβ [1] = biological target: T3, PI3Kβ (Homo sapiens, UniProt P42338); settings: relative to PI3Kδ IC50
PI3Kγ = PI3Kγ (Homo sapiens, UniProt P48736); settings: relative to PI3Kδ IC50
PI3Kβ [2] = biological target: T3, PI3Kβ; test: biochemical

Cc1nc(NC(=O)[C@@H](N)C(C)C)sc1-c1cnc(Cl)c(NS(=O)(=O)c2ccccc2)c1 [PI3KD-IN-015]
kinome wide selectivity (panel of 456 kinases): did not target any other protein kinases except for a few lipid kinases
fold selectivity against Vps34 (Vps34): 56 fold
fold selectivity against PI4KB (PI4KB): 34 fold
fold selectivity against PI3Kβ (PI3Kβ [1]): 20 fold
fold selectivity against PI3Kγ (PI3Kγ): 25 fold
pIC50 (PI3Kβ [2]): 7.00

— publication PMC5078040, “Characterization of selective and potent PI3Kδ inhibitor (PI3KD-IN-015) for B-Cell malignances” (Oncotarget, 2016)
